In US20230165792A1, “LIQUID FORMULATION AND PHARMACEUTICAL PRODUCT CONTAINING CILASTATIN” (Denka Company Limited, priority 2020, published 2023):

Columns and labels:
[1] = heated sample: sealed glass vial, 80° C. for 4 hours; HPLC
Method: Then, the glass vial was sealed and heated at 80° C. for 4 hours (to obtain a nitrogen-purged, heated sample). The aqueous solution before heating and the two samples prepared above were measured for absorbance, which served as an index for the degree of coloration, and also analyzed by HPLC to confirm the content of cilastatin.
The analysis conditions are detailed below.
Absorbance Measurement Conditions:
Equipment: Hitachi U-3900
Optical path length: 1 cm
HPLC Analysis Conditions:
Detector: Ultraviolet absorptiometer (measurement wavelength: 216 nm)
Column: 1.7 μm octadecylsilylated silica gel column (Acquity BEH C18, produced by Waters), 2.1 mm I.D., 50 mm long
Column temperature: 40° C.
Mobile phase: 25 mM phosphate buffer containing 9.5% acetonitrile (pH 4.25)
Amount of sample injected: 5 μL (prepared to 100 μg/mL)
Retention time: Cilastatin (about 2.6 min.)

[2] = Test 4: Effects of chelating agents (absorbance, HPLC content); conditions: 45° C. for four weeks, headspace purged with nitrogen
[3] = Test 2: Effects of antioxidants on cilastatin-containing liquid formulation (absorbance, HPLC content); assay type: physicochemical; conditions: 45° C. for 18 days, headspace purged with nitrogen
[4] = Test 3: Effects of additives (absorbance, HPLC content); assay type: physicochemical; conditions: 45° C. for four weeks, headspace purged with nitrogen

Cilastatin content [1]: 98.85% | Cilastatin content w/N2-purge [2]: 98.36% | Cilastatin content w/N2-purge [3]: 98.36% | Cilastatin content w/N2-purge [4]: 98.36%
SMILES: CC1(C)C[C@@H]1C(=O)N/C(=C\CCCCSC[C@H](N)C(=O)O)C(=O)O [cilastatin sodium, (Z)-7-[[(R)-2-amino-2-carboxyethyl]thio]-2-[[[(S)-2,2-dimethylcyclopropyl]carbonyl]amino]-2-heptenoic acid]
